Data from patent EP4834897A1, “COMPOUNDS WITH TWO AZAHETEROCYCLES SUBSTITUTED ISOINDOLINONE SKELETON AND USES THEREOF” (dated 2026).

Amino acid sequences for entries named in this document (tags omitted).
UniProt Q13422, whole entry: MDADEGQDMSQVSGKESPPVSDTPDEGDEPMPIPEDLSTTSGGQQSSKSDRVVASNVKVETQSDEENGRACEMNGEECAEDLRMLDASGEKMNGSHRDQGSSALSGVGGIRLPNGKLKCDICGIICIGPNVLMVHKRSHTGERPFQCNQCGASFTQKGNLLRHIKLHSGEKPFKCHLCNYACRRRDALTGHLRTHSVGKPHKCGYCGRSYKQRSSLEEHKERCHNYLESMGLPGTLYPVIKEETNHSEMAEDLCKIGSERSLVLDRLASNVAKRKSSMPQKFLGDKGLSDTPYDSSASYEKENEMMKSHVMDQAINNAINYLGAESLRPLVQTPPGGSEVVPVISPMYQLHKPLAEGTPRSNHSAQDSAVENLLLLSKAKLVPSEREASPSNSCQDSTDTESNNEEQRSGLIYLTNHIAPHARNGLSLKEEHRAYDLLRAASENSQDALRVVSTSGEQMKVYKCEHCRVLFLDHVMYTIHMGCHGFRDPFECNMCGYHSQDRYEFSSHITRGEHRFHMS
UniProt Q96SW2, whole entry: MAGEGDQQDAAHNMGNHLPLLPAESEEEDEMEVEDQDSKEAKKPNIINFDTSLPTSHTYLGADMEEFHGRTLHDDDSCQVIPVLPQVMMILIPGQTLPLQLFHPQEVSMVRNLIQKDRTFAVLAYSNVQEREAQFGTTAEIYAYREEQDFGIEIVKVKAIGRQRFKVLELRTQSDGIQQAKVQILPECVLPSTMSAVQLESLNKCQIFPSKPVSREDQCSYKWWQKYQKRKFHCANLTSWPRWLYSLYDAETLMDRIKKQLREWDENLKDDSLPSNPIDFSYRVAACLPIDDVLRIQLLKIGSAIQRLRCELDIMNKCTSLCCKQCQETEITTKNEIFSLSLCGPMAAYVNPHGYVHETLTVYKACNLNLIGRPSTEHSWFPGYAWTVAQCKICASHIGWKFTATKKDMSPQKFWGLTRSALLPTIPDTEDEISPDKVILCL
UniProt P15170, whole entry: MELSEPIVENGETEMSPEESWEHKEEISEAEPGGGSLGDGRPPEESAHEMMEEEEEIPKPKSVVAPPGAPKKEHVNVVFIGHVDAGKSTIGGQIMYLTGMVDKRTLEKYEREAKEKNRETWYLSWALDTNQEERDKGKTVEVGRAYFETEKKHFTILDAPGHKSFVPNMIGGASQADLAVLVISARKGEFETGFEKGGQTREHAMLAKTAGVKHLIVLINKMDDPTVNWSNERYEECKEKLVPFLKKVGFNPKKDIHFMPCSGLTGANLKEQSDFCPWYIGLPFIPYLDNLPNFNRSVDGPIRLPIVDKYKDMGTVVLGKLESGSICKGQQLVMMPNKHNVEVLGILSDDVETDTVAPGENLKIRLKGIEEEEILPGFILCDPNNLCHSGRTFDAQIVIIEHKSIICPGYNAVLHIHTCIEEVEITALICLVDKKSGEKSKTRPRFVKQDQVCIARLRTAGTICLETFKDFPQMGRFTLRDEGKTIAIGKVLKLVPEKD
UniProt Q9UKT9, whole entry: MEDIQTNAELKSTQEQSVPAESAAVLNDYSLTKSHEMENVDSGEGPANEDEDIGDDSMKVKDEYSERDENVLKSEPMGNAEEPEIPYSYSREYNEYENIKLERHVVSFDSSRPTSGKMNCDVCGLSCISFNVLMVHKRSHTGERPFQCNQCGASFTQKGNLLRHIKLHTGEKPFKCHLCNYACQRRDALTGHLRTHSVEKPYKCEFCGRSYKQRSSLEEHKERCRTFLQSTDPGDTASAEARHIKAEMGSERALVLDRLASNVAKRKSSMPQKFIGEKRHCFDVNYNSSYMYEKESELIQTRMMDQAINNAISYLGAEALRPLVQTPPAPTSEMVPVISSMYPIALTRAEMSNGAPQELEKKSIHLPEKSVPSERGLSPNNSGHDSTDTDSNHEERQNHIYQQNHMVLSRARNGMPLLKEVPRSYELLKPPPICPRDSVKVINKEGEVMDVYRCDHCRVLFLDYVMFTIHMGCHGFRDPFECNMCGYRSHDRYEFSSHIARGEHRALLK
UniProt P48729, whole entry: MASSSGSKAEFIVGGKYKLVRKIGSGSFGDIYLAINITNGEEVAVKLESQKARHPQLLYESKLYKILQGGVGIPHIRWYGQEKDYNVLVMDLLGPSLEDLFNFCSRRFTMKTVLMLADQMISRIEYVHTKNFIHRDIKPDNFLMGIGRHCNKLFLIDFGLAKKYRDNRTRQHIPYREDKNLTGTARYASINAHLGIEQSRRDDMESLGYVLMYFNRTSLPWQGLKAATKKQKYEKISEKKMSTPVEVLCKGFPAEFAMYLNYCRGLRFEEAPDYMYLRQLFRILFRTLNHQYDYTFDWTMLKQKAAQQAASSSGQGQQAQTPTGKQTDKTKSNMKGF
UniProt Q9UKS7, whole entry: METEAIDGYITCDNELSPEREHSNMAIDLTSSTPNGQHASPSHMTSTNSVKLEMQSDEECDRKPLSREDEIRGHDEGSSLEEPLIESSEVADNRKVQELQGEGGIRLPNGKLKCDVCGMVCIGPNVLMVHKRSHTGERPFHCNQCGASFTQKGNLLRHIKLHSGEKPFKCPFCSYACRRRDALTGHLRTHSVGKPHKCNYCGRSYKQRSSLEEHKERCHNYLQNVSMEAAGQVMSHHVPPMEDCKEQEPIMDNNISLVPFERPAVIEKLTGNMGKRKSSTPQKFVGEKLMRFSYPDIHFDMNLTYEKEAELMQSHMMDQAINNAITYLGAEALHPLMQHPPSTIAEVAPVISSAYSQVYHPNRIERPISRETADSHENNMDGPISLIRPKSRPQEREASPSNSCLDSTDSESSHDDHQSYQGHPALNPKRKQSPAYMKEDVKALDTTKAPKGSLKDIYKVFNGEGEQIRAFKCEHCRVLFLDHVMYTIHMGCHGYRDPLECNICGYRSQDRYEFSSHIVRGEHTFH
UniProt P30291, whole entry: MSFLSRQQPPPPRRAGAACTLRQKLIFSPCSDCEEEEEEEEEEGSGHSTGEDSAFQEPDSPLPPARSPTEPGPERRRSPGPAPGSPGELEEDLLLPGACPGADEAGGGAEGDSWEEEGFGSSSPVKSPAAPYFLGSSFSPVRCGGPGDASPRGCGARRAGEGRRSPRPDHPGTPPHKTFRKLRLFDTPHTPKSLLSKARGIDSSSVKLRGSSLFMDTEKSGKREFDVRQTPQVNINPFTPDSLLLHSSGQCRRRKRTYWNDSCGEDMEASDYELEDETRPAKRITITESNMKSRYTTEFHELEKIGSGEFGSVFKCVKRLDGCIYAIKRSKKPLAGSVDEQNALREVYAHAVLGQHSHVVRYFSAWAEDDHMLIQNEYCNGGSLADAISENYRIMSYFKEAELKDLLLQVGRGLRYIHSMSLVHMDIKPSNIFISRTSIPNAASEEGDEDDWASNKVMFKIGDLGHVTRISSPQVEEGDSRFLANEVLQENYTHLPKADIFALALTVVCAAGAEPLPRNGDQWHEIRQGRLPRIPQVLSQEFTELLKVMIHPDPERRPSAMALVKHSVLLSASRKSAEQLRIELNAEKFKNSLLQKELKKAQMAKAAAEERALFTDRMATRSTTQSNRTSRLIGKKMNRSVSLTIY
UniProt Q16531, whole entry partner: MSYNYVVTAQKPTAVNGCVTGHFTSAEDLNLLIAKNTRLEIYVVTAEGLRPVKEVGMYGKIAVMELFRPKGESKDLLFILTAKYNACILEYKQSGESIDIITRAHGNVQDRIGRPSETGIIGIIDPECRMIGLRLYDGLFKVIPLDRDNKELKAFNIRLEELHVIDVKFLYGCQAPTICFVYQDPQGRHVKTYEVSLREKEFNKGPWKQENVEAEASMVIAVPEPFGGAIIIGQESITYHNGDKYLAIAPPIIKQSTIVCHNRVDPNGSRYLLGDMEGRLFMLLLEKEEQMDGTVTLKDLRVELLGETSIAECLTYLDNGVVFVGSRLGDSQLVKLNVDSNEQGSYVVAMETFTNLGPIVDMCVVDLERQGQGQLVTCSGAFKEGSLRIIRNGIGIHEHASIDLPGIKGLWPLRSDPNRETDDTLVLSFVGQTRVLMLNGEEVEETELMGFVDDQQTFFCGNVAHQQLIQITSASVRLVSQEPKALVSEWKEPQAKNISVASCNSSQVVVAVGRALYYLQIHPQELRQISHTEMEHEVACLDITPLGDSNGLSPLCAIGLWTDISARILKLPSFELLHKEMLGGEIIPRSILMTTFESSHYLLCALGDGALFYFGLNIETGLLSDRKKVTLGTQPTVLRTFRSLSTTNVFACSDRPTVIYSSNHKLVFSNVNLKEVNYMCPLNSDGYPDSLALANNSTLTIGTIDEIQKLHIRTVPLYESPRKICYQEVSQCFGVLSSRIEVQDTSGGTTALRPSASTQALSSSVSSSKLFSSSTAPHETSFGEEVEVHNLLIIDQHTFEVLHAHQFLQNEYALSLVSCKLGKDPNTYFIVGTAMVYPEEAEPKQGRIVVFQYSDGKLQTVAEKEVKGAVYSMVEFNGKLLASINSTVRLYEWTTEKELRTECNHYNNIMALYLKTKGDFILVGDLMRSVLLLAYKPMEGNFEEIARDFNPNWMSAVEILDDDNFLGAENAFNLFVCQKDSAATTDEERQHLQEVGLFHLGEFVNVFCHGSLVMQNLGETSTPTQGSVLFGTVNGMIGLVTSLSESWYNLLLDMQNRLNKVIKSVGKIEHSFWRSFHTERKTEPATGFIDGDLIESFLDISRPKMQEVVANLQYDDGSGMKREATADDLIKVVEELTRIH

The compounds below were run against IKZF1 (Homo sapiens, UniProt Q13422+Q96SW2) (assay: Western blot assay of substrate protein degradation in hPBMCs). Conditions: 24 hours treatment, compounds at 50 nM and 500 nM (concentration behind the class not stated).
In the case of O=C1CCC(N2Cc3cc(CN4CCC(N5CC=C(c6cccc(Cl)c6Cl)CC5)C(F)(F)C4)ccc3C2=S)C(=O)N1 (stereo not shown), the “substrate protein remaining % (IKZF 1)” value was “B (80%< substrate protein remaining %≤ 100%)”.
With O=C1CCC(N2Cc3c(C(=O)N4CCC(N5CCN(c6noc7cc(F)ccc67)CC5)C(F)(F)C4)cccc3C2=O)C(=O)N1 (stereo not shown) the “substrate protein remaining % (IKZF 1)” value was “B (80%< substrate protein remaining %≤ 100%)”.
For O=C1CCC(N2Cc3cc(CN4CCC(N5CCN(c6cccc(Cl)c6Cl)CC5)CC4)ccc3C2=S)C(=O)N1 (stereo not shown), the “substrate protein remaining % (IKZF 1)” value was “B (80%< substrate protein remaining %≤ 100%)”.
With O=C1CCC(N2Cc3cc(C(=O)N4CCC(N5CCN(C(c6ccccc6)c6ccccc6)CC5)CC4)ccc3C2=O)C(=O)N1 (stereo not shown) the “substrate protein remaining % (IKZF 1)” value was “A (0% ≤ substrate protein remaining % ≤ 80%)”.

These compounds were tested against GSPT1 (Homo sapiens, UniProt P15170+Q96SW2) in the same assay as above. Conditions: 24 hours treatment, compounds at 50 nM and 500 nM (concentration behind the class not stated).
With O=C1CCC(N2Cc3cc(CN4CCC(N5CC=C(c6cccc(Cl)c6Cl)CC5)C(F)(F)C4)ccc3C2=S)C(=O)N1 (stereo not shown) the “substrate protein remaining % (GSPT1)” value was “A (0% ≤ substrate protein remaining % ≤ 80%)”.
O=C1CCC(N2Cc3c(C(=O)N4CCC(N5CCN(c6noc7cc(F)ccc67)CC5)C(F)(F)C4)cccc3C2=O)C(=O)N1 (stereo not shown) was tested, and the “substrate protein remaining % (GSPT1)” value was “A (0% ≤ substrate protein remaining % ≤ 80%)”.
For O=C1CCC(N2Cc3cc(CN4CCC(N5CCN(c6cccc(Cl)c6Cl)CC5)CC4)ccc3C2=S)C(=O)N1 (stereo not shown), the “substrate protein remaining % (GSPT1)” value was “A (0% ≤ substrate protein remaining % ≤ 80%)”.
O=C1CCC(N2Cc3cc(C(=O)N4CCC(N5CCN(C(c6ccccc6)c6ccccc6)CC5)CC4)ccc3C2=O)C(=O)N1 (stereo not shown) was tested, and the “substrate protein remaining % (GSPT1)” value was “A (0% ≤ substrate protein remaining % ≤ 80%)”.

Each compound was assayed against IKZF3 (Homo sapiens, UniProt Q96SW2+Q9UKT9) in the same assay as above. Conditions: 24 hours treatment, compounds at 50 nM and 500 nM (concentration behind the class not stated).
For O=C1CCC(N2Cc3cc(CN4CCC(N5CC=C(c6cccc(Cl)c6Cl)CC5)C(F)(F)C4)ccc3C2=S)C(=O)N1 (stereo not shown), the “substrate protein remaining % (IKZF3)” value was “A (0% ≤ substrate protein remaining % ≤ 80%)”.
With O=C1CCC(N2Cc3c(C(=O)N4CCC(N5CCN(c6noc7cc(F)ccc67)CC5)C(F)(F)C4)cccc3C2=O)C(=O)N1 (stereo not shown) the “substrate protein remaining % (IKZF3)” value was “B (80%< substrate protein remaining %≤ 100%)”.
O=C1CCC(N2Cc3cc(CN4CCC(N5CCN(c6cccc(Cl)c6Cl)CC5)CC4)ccc3C2=S)C(=O)N1 (stereo not shown) was tested, and the “substrate protein remaining % (IKZF3)” value was “A (0% ≤ substrate protein remaining % ≤ 80%)”.
O=C1CCC(N2Cc3cc(C(=O)N4CCC(N5CCN(C(c6ccccc6)c6ccccc6)CC5)CC4)ccc3C2=O)C(=O)N1 (stereo not shown) was tested, and the “substrate protein remaining % (IKZF3)” value was “B (80%< substrate protein remaining %≤ 100%)”.

These compounds were tested against CK1α (Homo sapiens, UniProt P48729+Q96SW2) in the same assay as above. Conditions: 24 hours treatment, compounds at 50 nM and 500 nM (concentration behind the class not stated).
In the case of O=C1CCC(N2Cc3cc(CN4CCC(N5CC=C(c6cccc(Cl)c6Cl)CC5)C(F)(F)C4)ccc3C2=S)C(=O)N1 (stereo not shown), the “substrate protein remaining % (CK1a)” value was “B (80%< substrate protein remaining %≤ 100%)”.
O=C1CCC(N2Cc3c(C(=O)N4CCC(N5CCN(c6noc7cc(F)ccc67)CC5)C(F)(F)C4)cccc3C2=O)C(=O)N1 (stereo not shown) was tested, and the “substrate protein remaining % (CK1a)” value was “A (0% ≤ substrate protein remaining % ≤ 80%)”.
O=C1CCC(N2Cc3cc(CN4CCC(N5CCN(c6cccc(Cl)c6Cl)CC5)CC4)ccc3C2=S)C(=O)N1 (stereo not shown) was tested, and the “substrate protein remaining % (CK1a)” value was “B (80%< substrate protein remaining %≤ 100%)”.
In the case of O=C1CCC(N2Cc3cc(C(=O)N4CCC(N5CCN(C(c6ccccc6)c6ccccc6)CC5)CC4)ccc3C2=O)C(=O)N1 (stereo not shown), the “substrate protein remaining % (CK1a)” value was “B (80%< substrate protein remaining %≤ 100%)”.

What follows are compounds tested against IKZF2 (Homo sapiens, UniProt Q96SW2+Q9UKS7) in the same assay as above. Conditions: 24 hours treatment, compounds at 50 nM and 500 nM (concentration behind the class not stated).
In the case of O=C1CCC(N2Cc3cc(CN4CCC(N5CC=C(c6cccc(Cl)c6Cl)CC5)C(F)(F)C4)ccc3C2=S)C(=O)N1 (stereo not shown), the “substrate protein remaining % (IKZF2)” value was “A (0% ≤ substrate protein remaining % ≤ 80%)”.
With O=C1CCC(N2Cc3c(C(=O)N4CCC(N5CCN(c6noc7cc(F)ccc67)CC5)C(F)(F)C4)cccc3C2=O)C(=O)N1 (stereo not shown) the “substrate protein remaining % (IKZF2)” value was “B (80%< substrate protein remaining %≤ 100%)”.
O=C1CCC(N2Cc3cc(CN4CCC(N5CCN(c6cccc(Cl)c6Cl)CC5)CC4)ccc3C2=S)C(=O)N1 (stereo not shown) was tested, and the “substrate protein remaining % (IKZF2)” value was “B (80%< substrate protein remaining %≤ 100%)”.
O=C1CCC(N2Cc3cc(C(=O)N4CCC(N5CCN(C(c6ccccc6)c6ccccc6)CC5)CC4)ccc3C2=O)C(=O)N1 (stereo not shown) was tested, and the “substrate protein remaining % (IKZF2)” value was “B (80%< substrate protein remaining %≤ 100%)”.

The compounds below were run against WEE1 (Homo sapiens, UniProt P30291+Q96SW2) in the same assay as above. Conditions: 24 hours treatment, compounds at 50 nM and 500 nM (concentration behind the class not stated).
In the case of O=C1CCC(N2Cc3cc(CN4CCC(N5CC=C(c6cccc(Cl)c6Cl)CC5)C(F)(F)C4)ccc3C2=S)C(=O)N1 (stereo not shown), the “substrate protein remaining % (WEE1)” value was “A (0% ≤ substrate protein remaining % ≤ 80%)”.
O=C1CCC(N2Cc3c(C(=O)N4CCC(N5CCN(c6noc7cc(F)ccc67)CC5)C(F)(F)C4)cccc3C2=O)C(=O)N1 (stereo not shown) was tested, and the “substrate protein remaining % (WEE1)” value was “A (0% ≤ substrate protein remaining % ≤ 80%)”.
In the case of O=C1CCC(N2Cc3cc(CN4CCC(N5CCN(c6cccc(Cl)c6Cl)CC5)CC4)ccc3C2=S)C(=O)N1 (stereo not shown), the “substrate protein remaining % (WEE1)” value was “A (0% ≤ substrate protein remaining % ≤ 80%)”.
For O=C1CCC(N2Cc3cc(C(=O)N4CCC(N5CCN(C(c6ccccc6)c6ccccc6)CC5)CC4)ccc3C2=O)C(=O)N1 (stereo not shown), the “substrate protein remaining % (WEE1)” value was “A (0% ≤ substrate protein remaining % ≤ 80%)”.

The compounds below were run on Human myeloid monocytic leukemia cell (MV-4-11) (assay: Tumor cell proliferation inhibition (cell viability assay)). Conditions: MV-4-11 cells; 10 nM; 96 hours.
For O=C1CCC(N2Cc3cc(CN4CCC(N5CC=C(c6cccc(Cl)c6Cl)CC5)C(F)(F)C4)ccc3C2=S)C(=O)N1 (stereo not shown), the “Inhibition Rate at 10 nM (%)” value was 1a5 (30% ≤ 1a5 ≤ 40%).
For O=C1CCC(N2Cc3c(C(=O)N4CCC(N5CCN(c6noc7cc(F)ccc67)CC5)C(F)(F)C4)cccc3C2=O)C(=O)N1 (stereo not shown), the “Inhibition Rate at 10 nM (%)” value was 1a5 (30% ≤ 1a5 ≤ 40%).
O=C1CCC(N2Cc3cc(CN4CCC(N5CCN(c6cccc(Cl)c6Cl)CC5)CC4)ccc3C2=S)C(=O)N1 (stereo not shown) was tested, and the “Inhibition Rate at 10 nM (%)” value was 1a7 (50% ≤ 1a7 < 60%).
For O=C1CCC(N2Cc3cc(C(=O)N4CCC(N5CCN(C(c6ccccc6)c6ccccc6)CC5)CC4)ccc3C2=O)C(=O)N1 (stereo not shown), the “Inhibition Rate at 10 nM (%)” value was 1a7 (50% ≤ 1a7 < 60%).

Same assay, conditions: MV-4-11 cells; 500 nM; 96 hours
In the case of O=C1CCC(N2Cc3cc(CN4CCC(N5CC=C(c6cccc(Cl)c6Cl)CC5)C(F)(F)C4)ccc3C2=S)C(=O)N1 (stereo not shown), the “Inhibition Rate at 500 nM (%)” value was 1a9 (70% ≤ 1a9 < 80%).
For O=C1CCC(N2Cc3c(C(=O)N4CCC(N5CCN(c6noc7cc(F)ccc67)CC5)C(F)(F)C4)cccc3C2=O)C(=O)N1 (stereo not shown), the “Inhibition Rate at 500 nM (%)” value was 1a9 (70% ≤ 1a9 < 80%).
O=C1CCC(N2Cc3cc(CN4CCC(N5CCN(c6cccc(Cl)c6Cl)CC5)CC4)ccc3C2=S)C(=O)N1 (stereo not shown) was tested, and the “Inhibition Rate at 500 nM (%)” value was 1a9 (70% ≤ 1a9 < 80%).
O=C1CCC(N2Cc3cc(C(=O)N4CCC(N5CCN(C(c6ccccc6)c6ccccc6)CC5)CC4)ccc3C2=O)C(=O)N1 (stereo not shown) was tested, and the “Inhibition Rate at 500 nM (%)” value was 1a9 (70% ≤ 1a9 < 80%).

The compounds below were run against CRBN (Homo sapiens, UniProt Q96SW2) (assay: CRBN binding affinity by HTRF (CEREBLON BINDING kit)). Conditions: CRBN binding, HTRF, compound at 0.5 µM.
With O=C1CCC(N2Cc3cc(CN4CCC(N5CC=C(c6cccc(Cl)c6Cl)CC5)C(F)(F)C4)ccc3C2=S)C(=O)N1 (stereo not shown) the “Inhibition Rate at 0.5 µM (%)” value was “a4 (40% < a4 ≤ 53%)”.
For O=C1CCC(N2Cc3c(C(=O)N4CCC(N5CCN(c6noc7cc(F)ccc67)CC5)C(F)(F)C4)cccc3C2=O)C(=O)N1 (stereo not shown), the “Inhibition Rate at 0.5 µM (%)” value was “a4 (40% < a4 ≤ 53%)”.
With O=C1CCC(N2Cc3cc(CN4CCC(N5CCN(c6cccc(Cl)c6Cl)CC5)CC4)ccc3C2=S)C(=O)N1 (stereo not shown) the “Inhibition Rate at 0.5 µM (%)” value was “a4 (40% < a4 ≤ 53%)”.
In the case of O=C1CCC(N2Cc3cc(C(=O)N4CCC(N5CCN(C(c6ccccc6)c6ccccc6)CC5)CC4)ccc3C2=O)C(=O)N1 (stereo not shown), the “Inhibition Rate at 0.5 µM (%)” value was “a3 (30% < a3 ≤ 40%)”.

Same assay, conditions: CRBN binding, HTRF, compound at 2 µM
O=C1CCC(N2Cc3cc(CN4CCC(N5CC=C(c6cccc(Cl)c6Cl)CC5)C(F)(F)C4)ccc3C2=S)C(=O)N1 (stereo not shown) was tested, and the “Inhibition Rate at 2 µM (%)” value was “a8 (80% < a8 ≤100%)”.
With O=C1CCC(N2Cc3c(C(=O)N4CCC(N5CCN(c6noc7cc(F)ccc67)CC5)C(F)(F)C4)cccc3C2=O)C(=O)N1 (stereo not shown) the “Inhibition Rate at 2 µM (%)” value was “a8 (80% < a8 ≤100%)”.
With O=C1CCC(N2Cc3cc(CN4CCC(N5CCN(c6cccc(Cl)c6Cl)CC5)CC4)ccc3C2=S)C(=O)N1 (stereo not shown) the “Inhibition Rate at 2 µM (%)” value was “a8 (80% < a8 ≤100%)”.
O=C1CCC(N2Cc3cc(C(=O)N4CCC(N5CCN(C(c6ccccc6)c6ccccc6)CC5)CC4)ccc3C2=O)C(=O)N1 (stereo not shown) was tested, and the “Inhibition Rate at 2 µM (%)” value was “a6 (60% < a6 ≤ 70%)”.
